Structures can show the parent of a compound that is named as a salt.
What was measured:
[1] = Acute toxicity in mice, intravenous injection (LD50); conditions: mouse, in vivo, iv, LD50, mice
Description: (§1) Acute toxicity of the compounds according
(§2) to the invention in terms of LD50
(§3) Referring to the above table, the injection No. 1 was adjusted to pH 7.0-7.2 by adding sodium carbonate after dissolution of the sample.

[2] = system: mice; test: as above; conditions: mice, male
Description: as §1, §2, §3

O=C(O)C1CSC(C(O)C(O)C(O)C(O)C(=O)O)N1 (centres unmarked) [CGCa, Calcium cysteineglucuronate]
LD50 ([1]; female): 200 mg/kg | LD50 ([1]; male): 100 mg/kg

O=C(O)C1CSC(C(O)C(O)C(O)C(O)C(=O)O)N1 (centres unmarked) [CGMg, Magnesium cysteineglucuronate]
LD50 ([2]; listed as Magnesium salt): 250 mg/kg

O=C(O)C1CSC(C(O)C(O)C(O)C(O)C(=O)O)N1 (centres unmarked) [Dipotassium salt]
LD50 [2]: 250 mg/kg

O=C(O)C1CSC(C(O)C(O)C(O)C(O)C(=O)O)N1 (centres unmarked) [Monosodium salt, Monosodium cysteineglucuronate]
LD50 ([1]; male and female, injection adjusted to pH 7.0-7.2 with sodium carbonate): 2500 mg/kg
